These are literature values, as cited in patent US20170143824A1 (Teva Pharmaceutical Industries, Ltd., priority 2013, published 2017).

One data set has as its system patients with RRMS. Particulars: registration trials, compared with placebo.
Another data set deals with patients with MS. Particulars: at one year.

B1: Avonex: IFN beta-1a, FDA-approved drug for RRMS (protein, UniProt P01574 22-187, looked up)
Interferon beta: MSYNLLGFLQRSSNFQCQKLLWQLNGRLEYCLKDRMNFDIPEEIKQLQQFQKEDAALTIYEMLQNIFAIFRQDSSSTGWNETIVENLLANVYHQINHLKTVLEEKLEKEDFTRGKLMSSLHLKRYYGRILHYLKAKEYSHCAWTIVRVEILRNFYFINRLTGYLRN
B1: the “reduction of relapse rate” value in the data set on patients with RRMS is “about one third”. The “number of new and newly enlarged T2 lesions on MRI scans” value in the data set with patients with MS is on record as 2.6.

B2: Rebif: IFN beta-1a, FDA-approved drug for RRMS (protein, UniProt P01574 22-187, looked up)
Interferon beta: MSYNLLGFLQRSSNFQCQKLLWQLNGRLEYCLKDRMNFDIPEEIKQLQQFQKEDAALTIYEMLQNIFAIFRQDSSSTGWNETIVENLLANVYHQINHLKTVLEEKLEKEDFTRGKLMSSLHLKRYYGRILHYLKAKEYSHCAWTIVRVEILRNFYFINRLTGYLRN
modifications: interferon beta-1a
notes: IFN beta-1a, FDA-approved drug for RRMS
As to B2, the “reduction of relapse rate” value with patients with RRMS is listed as “about one third”.
